# Ab-14 light chain CDR variants: yeast mating affinities

Values reported by Li et al. 2023, doi:10.1038/s41467-023-39022-2 (FLAb copy).

Target: peptide PDVDLGDISGINAS, taken from heptad repeat 2 (HR2) of SARS-CoV-2 spike.

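Phage display of a naive human antibody library on the peptide gave the parent. Designed CDR sequences, proposed from the first random library and measured here. Several design methods are mixed in this list. Affinity was read by AlphaSeq, a pooled yeast mating assay with surface-displayed partners. Binding brings cells together so that they mate, and sequencing counts the barcode pairs among the diploids. The ratio of observed to expected reads was calibrated, replicate by replicate, on BCL2-family standards whose Kd was known from biolayer interferometry. Each pool was mated in six replicate cultures.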

Parent: Ab-14, a human scFv built as VH, three GGGGS repeats, VL. Only the CDRs of the light chain vary.
VH: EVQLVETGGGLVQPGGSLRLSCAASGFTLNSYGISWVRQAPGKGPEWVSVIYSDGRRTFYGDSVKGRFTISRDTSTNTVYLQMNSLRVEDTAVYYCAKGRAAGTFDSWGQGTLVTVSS
VL: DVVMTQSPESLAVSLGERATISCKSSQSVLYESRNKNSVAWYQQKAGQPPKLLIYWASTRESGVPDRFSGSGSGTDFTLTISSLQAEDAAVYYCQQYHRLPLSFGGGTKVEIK

The parent's light chain CDRs are KSSQSVLYESRNKNSVA, WASTRES, QQYHRLPLS; each variant's own CDRs replace them letter for letter. Variants here have at most six changes. Values are apparent Kd, the geometric mean of the replicates that gave a signal; lower means stronger binding. Where no diploid with the target was found in any replicate, the entry reads "no signal": below detection, most likely a poor binder, though not proof of it.

- KLYQSVLYESRNKNSVA, NASTRLS, QQYHRLPLS = 1.5 nM (6 of 6 replicates)
- KLYQSVLYESRNKNSVA, NASTREQ, QQYHRLPLS = 1.1 nM (6 of 6 replicates)
- KLSQSVLYESRNWNSVA, NASQRES, QQYHRLPLS = 890 pM (6 of 6 replicates)
- KVSQSKLYESRNKNNVA, DASTRES, QQYHRLPLS = 1.6 nM (6 of 6 replicates)
- KSEWSVLYESRNKNSVA, TASTRES, QQYHRLPLS = 46 nM (3 of 6 replicates)
- KLEGSQLYESRNKNSVA, EASTRES, QQYHRLPLS = 1.3 nM (6 of 6 replicates)
- KSSISMLGEKRNKNSVA, EASTRES, QQYHRLPLS = 1.1 nM (6 of 6 replicates)
- KSSSSYLYESMNKNSVA, NASQRES, QQYHRLPLS = 3.9 nM (6 of 6 replicates)
- KSSQSVLYESPNKNSVA, WASVRES, QQYKRLPLS = 71 nM (6 of 6 replicates)
- KSSQSELYESRNKNDVA, WASKRES, QQYHRLPLS = 44 nM (6 of 6 replicates)
- KLSQSELYESRNKNNVA, GASQRES, QQYHRLPLS = 1.1 nM (6 of 6 replicates)
- KLPQGVLYESRMKNSVA, GASVRES, QQYHRLPLS = 380 pM (6 of 6 replicates)
- KSSLSVLYESHNKNSVA, NASTRMS, QQYHRLPLS = 11 nM (6 of 6 replicates)
- KSSQSVLEESRNQNSVA, WASTRES, QQYHRLPLS = 4.6 nM (6 of 6 replicates)
- KVSFSYLLESRNKNSVA, EAQTRES, QQYHRLPLS = 2.8 nM (6 of 6 replicates)
- KLSQSVLYEQRNKNSVA, EASTRES, QQYHRLPLS = 530 pM (6 of 6 replicates)
- HLSDSVLYESRNKNSVA, GASTRES, QQYHRLPLL = 400 pM (6 of 6 replicates)
- KSSQSWLYESRNKNSVA, GASACEV, QQYHRLPLS = 34 nM (1 of 6 replicates)
- KLSQSNLYESRMKNSVA, NASTRES, QQYHRLPLS = 980 pM (6 of 6 replicates)
- KTEVSDLYESRNKNSVA, NASERES, QQYHRLPLS = 880 pM (6 of 6 replicates)
- KSSQSWLYESRNKNSVA, WASTRED, QQYHTLPLS = 230 nM (1 of 6 replicates)
- KLPQSGLYESRNKNSVA, QASTRES, QQYHRLPLS = 800 pM (6 of 6 replicates)
- KLSQSWLYESRNKNNVA, DASTRES, QQYHRLPLS = 540 pM (6 of 6 replicates)
- KSEQSVLYESRNKNSVA, HASTRES, QQYHRLPLS = 2.4 nM (6 of 6 replicates)
- KSSQSVLYESRNNNSVA, WAKTRES, QQYVRLPLS = 57 nM (1 of 6 replicates)
- KLEQSWLYESRNKNSVA, NASTREV, QQYHRLPLS = 1.2 nM (6 of 6 replicates)
- SLMQSVLYESRNKNSVA, HASYRED, QQYHRLPLS = 1.2 nM (6 of 6 replicates)
- KYSQSWLYESRNKNSVA, WASTRES, QQKHVLPLS = 2.3 nM (6 of 6 replicates)
- KSSQSVLFEHRNKNSVA, WASTRES, QQYHRLPIS = no signal (0 of 6 replicates)
- KSSQSVLYLSSNSNSVA, WASTRNE, QQYHRLPLS = 25 nM (5 of 6 replicates)
- KLQQLVLYESRNKNSVA, DASTRMS, QAYHRLPLS = 970 pM (6 of 6 replicates)
- KCSQSVLYESRNKNSVA, ECTTRES, QQYHRLPLM = no signal (0 of 6 replicates)
- KLSQSMLYESRNKNSVA, EASTRCS, QQYHRLPLS = 2.0 nM (6 of 6 replicates)
- KLSQSVMYESRNKNSVA, NASTRYS, QQYHRLPLS = 610 pM (6 of 6 replicates)
- KLQQSALYESRNKNSVA, NASTRMS, QQYHRLPLS = 1.4 nM (6 of 6 replicates)
- KLQQSWLYESRNKNSVA, NASTREV, QQYHRLPLS = 1.0 nM (6 of 6 replicates)
- KSSQSVLYESRNKNSVA, WASTRES, QQYHRLPIS = no signal (0 of 6 replicates)
- KLSQSVEYESRNKNSVA, EASTREQ, QQYHRLPLS = 650 pM (6 of 6 replicates)
- KSSQSLLYESRNKNSVA, WASTRES, QQYHHLPLS = 26 nM (6 of 6 replicates)
- KLSQSVLYESRMTNSVA, NASTRES, QQYHRLPLS = 620 pM (6 of 6 replicates)
- QSDQSVLYESRNKNSVA, GASTRLS, PQYMRLPLS = 8.7 nM (6 of 6 replicates)

6 of these entries, quoted again:

CDR-L1	CDR-L2	CDR-L3	Kd	seen in
QSDQSVLYESRNKNSVA	GASTRLS	PQYMRLPLS	8.7 nM	6/6
KSEQSVLYESRNKNSVA	HASTRES	QQYHRLPLS	2.4 nM	6/6
KLSQSNLYESRMKNSVA	NASTRES	QQYHRLPLS	980 pM	6/6
KLPQSGLYESRNKNSVA	QASTRES	QQYHRLPLS	800 pM	6/6
KLSQSELYESRNKNNVA	GASQRES	QQYHRLPLS	1.1 nM	6/6
KLSQSVLYESRMTNSVA	NASTRES	QQYHRLPLS	620 pM	6/6

The authors' rule: three or more of the six replicates give a measured affinity, fewer mean a poor binder. The parent sequence was in this pool as ten entries: three were never detected, three once, and four in most replicates, with averages from 2.2 nM to 240 nM. Background: pairings of all light chain designs with three empty control strains gave a value in 4% of cases (median 430 nM, 5th percentile 38 nM). Values in that range, when seen in few replicates, are hard to tell from nonspecific mating. A sequence measured in both rounds can read differently, since the two assays cover different ranges.